Source: patent publication US7803774B2, “Modulators of β-amyloid peptide aggregation” (Praecis Pharmaceuticals, Inc., priority 1999, dated 2010)

Assay: BUI#77: IN VIVO: IV BRAIN LEVELS @ 1 HOUR post 1 mL x 1 min IV
Description: Table printed on a drawing sheet, Fig. 1
Title: BUI#77: IN VIVO: IV BRAIN LEVELS @ 1 HOUR post 1 mL x 1 min IV
Footnotes: All tested at max solubility in 5% mennitol, pH4 (except PPI-558=DMPC) / Brain levels determined via LC/MS/MS (0.2 mL: PPI-657=IS, except PPI-558: 2mL SepPak) / * Computed values from do area < 100
The patent's description of the figure: FIG. 1 is a table depicting the results from a brain uptake assay.
First reader's note: Rows with only a Structure cell (l-v-f-f-a, TFA. l-v-f-f-l, TFA. l-f-f-v-l) are bold group headings for the rows below them; the asterisk printed in the gap before the UNIT DOSE block is kept in its own unheaded column.

Compared with “4-hydroxybenzoyl-(lvffa)-NH2 [558 | 558]”, “TFA. H-(l-[cha]-[cha]-vl)-NH2 [1326 | 1326]” is 12-fold lower in “MAX SOLUBILITY | Brain Levels (nM) + CsA | mean” value: 24 nM for the first, 2 nM for the second.

First: TFA. H-(l-[cha]-fvl)-NH2 [1322 | 1322]
Second: TFA. H-(lf-[cha]-vl)-NH2 [1318 | 1318]
The “MAX SOLUBILITY | Brain Levels (nM) + CsA | mean” value of the first is 3-fold lower: 1 nM for the first, 3 nM for the second.

Going from TFA. H-(lvf-[cha]-l)-NH2 [1301 | 1301] to TFA. H-(lvf-[p-F]f-l)-NH2 [1302 | 1302], the “MAX SOLUBILITY | Brain Levels (nM) + CsA | mean” value falls from 11 nM to 4 nM (2.8-fold).

Going from TFA.H-(l-[F5]f-[F5]f-vl)-NH2 [PPI-1328] to “TFA.H-(l-[p-F]f-[p-F]f-vl)-NH2 [PPI-1327]”, the “MAX SOLUBILITY | Brain Levels (nM) + CsA | mean” value rises from 7 nM to 20 nM (2.9-fold).

Compared with TFA.H-(lf-[F5]f-vl)-NH2 [PPI-1320], TFA.H-(lf-[p-F]f-vl)-NH2 [PPI-1319] is 2-fold higher in “MAX SOLUBILITY | Brain Levels (nM) + CsA | mean” value: 16 nM for the first, 32 nM for the second.

In the case of TFA.H-(lvf-[F5]f-l)-NH2 [PPI-1303], the “MAX SOLUBILITY | Brain Levels (nM) + CsA | mean” value is reported as 4 nM.

First: 4-hydroxybenzoyl-(lvffa)-NH2 [558 | 558]
Second: TFA. H-(l-[cha]-[cha]-vl)-NH2 [1326 | 1326]
The “MAX SOLUBILITY | Brain Levels (nM) | mean” value of the first is 3.7-fold higher: 3.3 nM for the first, 0.9 nM for the second.

Compared with TFA. H-(l-[cha]-fvl)-NH2 [1322 | 1322], TFA. H-(lf-[cha]-vl)-NH2 [1318 | 1318] is 12-fold higher in “MAX SOLUBILITY | Brain Levels (nM) | mean” value: 0.2 nM for the first, 2.5 nM for the second.

Compared with TFA. H-(lvf-[cha]-l)-NH2 [1301 | 1301], TFA. H-(lvf-[p-F]f-l)-NH2 [1302 | 1302] is 2.5-fold lower in “MAX SOLUBILITY | Brain Levels (nM) | mean” value: 3.3 nM for the first, 1.3 nM for the second.

Going from TFA.H-(l-[F5]f-[F5]f-vl)-NH2 [PPI-1328] to “TFA.H-(l-[p-F]f-[p-F]f-vl)-NH2 [PPI-1327]”, the “MAX SOLUBILITY | Brain Levels (nM) | mean” value rises from 1.0 nM to 5.3 nM (5.3-fold).

Going from TFA.H-(lf-[F5]f-vl)-NH2 [PPI-1320] to TFA.H-(lf-[p-F]f-vl)-NH2 [PPI-1319], the “MAX SOLUBILITY | Brain Levels (nM) | mean” value rises from 5.3 nM to 34.9 nM (6.6-fold).

In the case of TFA.H-(lvf-[F5]f-l)-NH2 [PPI-1303], the “MAX SOLUBILITY | Brain Levels (nM) | mean” value is reported as 0.8 nM.

“4-hydroxybenzoyl-(lvffa)-NH2 [558 | 558]” and “TFA. H-(l-[cha]-[cha]-vl)-NH2 [1326 | 1326]” are within 1.5-fold of each other in “UNIT DOSE (2mg/kg IV) | (+)CsA” value: 14 nM for the first, 15 nM for the second.

First: TFA. H-(l-[cha]-fvl)-NH2 [1322 | 1322]
Second: TFA. H-(lf-[cha]-vl)-NH2 [1318 | 1318]
The “UNIT DOSE (2mg/kg IV) | (+)CsA” value of the first is 3.2-fold higher: 16 nM for the first, 5 nM for the second.

Compared with TFA. H-(lvf-[cha]-l)-NH2 [1301 | 1301], TFA. H-(lvf-[p-F]f-l)-NH2 [1302 | 1302] is 1.5-fold higher in “UNIT DOSE (2mg/kg IV) | (+)CsA” value: 8 nM for the first, 12 nM for the second.

TFA.H-(l-[F5]f-[F5]f-vl)-NH2 [PPI-1328] and TFA.H-(lf-[F5]f-vl)-NH2 [PPI-1320] are within 1.5-fold of each other in “UNIT DOSE (2mg/kg IV) | (+)CsA” value: 11 nM for the first, 10 nM for the second.

In the case of TFA.H-(lvf-[F5]f-l)-NH2 [PPI-1303], the “UNIT DOSE (2mg/kg IV) | (+)CsA” value is reported as 7 nM.

Compared with “4-hydroxybenzoyl-(lvffa)-NH2 [558 | 558]”, “TFA. H-(l-[cha]-[cha]-vl)-NH2 [1326 | 1326]” is 4-fold higher in “UNIT DOSE (2mg/kg IV) | ALONE” value: 2 nM for the first, 8 nM for the second.

First: TFA. H-(l-[cha]-fvl)-NH2 [1322 | 1322]
Second: TFA. H-(lf-[cha]-vl)-NH2 [1318 | 1318]
The “UNIT DOSE (2mg/kg IV) | ALONE” value of the first is 1.7-fold lower: 3 nM for the first, 5 nM for the second.

Going from TFA. H-(lvf-[cha]-l)-NH2 [1301 | 1301] to TFA. H-(lvf-[p-F]f-l)-NH2 [1302 | 1302], the “UNIT DOSE (2mg/kg IV) | ALONE” value rises from 2 nM to 4 nM (2-fold).

First: TFA.H-(l-[F5]f-[F5]f-vl)-NH2 [PPI-1328]
Second: TFA.H-(l-[p-F]f-[p-F]f-vl)-NH2 [PPI-1327]
The “UNIT DOSE (2mg/kg IV) | ALONE” value of the first is 1.5-fold lower: 2 nM for the first, 3 nM for the second.

First: TFA.H-(lf-[F5]f-vl)-NH2 [PPI-1320]
Second: TFA.H-(lf-[p-F]f-vl)-NH2 [PPI-1319]
The “UNIT DOSE (2mg/kg IV) | ALONE” value of the first is 2.8-fold lower: 4 nM for the first, 11 nM for the second.

For TFA.H-(lvf-[F5]f-l)-NH2 [PPI-1303], the “UNIT DOSE (2mg/kg IV) | ALONE” value was 2 nM.
